The subject of the test is human laryngeal nerve sections. The test is described as follows: Dose response of FAM-HNP401 by topical application on human nerve sections, confocal.

Structures are written as SMILES. Residues, ends and D or L forms follow the SMILES beside them. *: point of attachment. Fluorescein(5-Mal) = O=C1OC2(c3ccc(O)cc3Oc3cc(O)ccc32)c2ccc(N3C(=O)CC(*)C3=O)cc21 Where only a bound is given, the exact number is not on record here.

These results are taken from patent US12533425B2, “Methods and systems using peptides for targeting and mapping human nerves in image guided surgery, diagnostics and therapeutic delivery” (ALUME BIOSCIENCES, INC., priority 2019, dated 2026).

Consider `CC(=O)N[C@@H](CO)C(=O)NCC(=O)N[C@@H](CCC(N)=O)C(=O)N[C@H](C(=O)N1CCC[C@H]1C(=O)N[C@@H](Cc1c[nH]c2ccccc12)C(=O)N[C@@H](CCC(=O)O)C(=O)N[C@@H](CCC(=O)O)C(=O)N1CCC[C@H]1C(=O)N[C@@H](Cc1ccc(O)cc1)C(=O)N[C@@H](Cc1ccc(O)cc1)C(=O)N[C@H](C(=O)N[C@H](C(=O)N[C@@H](CCCCN)C(=O)N[C@@H](CCCCN)C(=O)N[C@@H](CO)C(=O)N[C@@H](CO)C(=O)NCC(=O)NCC(=O)N[C@@H](CSC1CC(=O)N(c2ccc3c(c2)C(=O)OC32c3ccc(O)cc3Oc3cc(O)ccc32)C1=O)C(N)=O)C(C)C)C(C)C)C(C)C` (some centres unmarked) [FAM-HNP401] (Ac-SGQVPWEEPYYVVKKSSGGC(Fluorescein(5-Mal))-NH2), for which the “concentration giving optimal nerve contrast” value (topical 1 to 375 μM) was in the range of 50 to 100 µM. In addition, the “concentration at which signal from human nerve saturates” value (topical up to 375 μM) is at most 100 µM.
